S100A4 inh HTS = inhibitors of S100A4-myosin IIA peptide binding, primary screen, biochemical, fluorescence polarization, TAMRA-MyoIIA peptide. inhibition, % at 10.7 µM. Protein S100-A4 (Homo sapiens), P26447. hit rate 0.14% among 360,000;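 active = mean inhibition of at least 70% across replicates, with every replicate also reaching that level; inconclusive = mean inhibition reaches 70% but some replicates fall short; inactive = mean inhibition below 70%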
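Material: S100A4 monomer (human). Medium: Calcium-containing HEPES buffer, pH 7.2. Probe or stimulus: labelled myosin peptide probe, 5 nM. Compound dosing: one concentration per compound. Timing: polarization read 5 min after assay mix addition, stable 5–60 min. Benchmarks: DMSO as neutral control, TFP as positive control.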
ARNT TACC3 PPI = disruptors of ARNT/TACC3 protein interaction, primary screen, biochemical, AlphaScreen, single concentration; Transforming acidic coiled-coil-containing protein 3 (Homo sapiens), Q9Y6A5; AlphaScreen His-ARNT PAS-B/GST-TACC3 binding, luminescence; TACC3 fragment carries E629A point mutation; inhibition, % at 9.99 µM; hit rate 0.66% among 390,000; AID 623870, 2012;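 active = mean inhibition of replicates at least 50% and at least half of replicates each reaching 50%; inconclusive = half or more replicates reach 50% but mean below 50%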
ERAP1 inh = human ERAP1 aminopeptidase inhibitors, primary screen, biochemical, single point, plate reader; Endoplasmic reticulum aminopeptidase 1 (Homo sapiens), Q9NZ08; recombinant ERAP1, Leu-AMC fluorescence, 60 min; inhibition, % at 10.7 µM; hit rate 0.15% among 340,000;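 active = mean replicate inhibition of at least 30%, or all replicates individually reaching that 30% level; inactive = mean below 30% and not every replicate reaching it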
Yeast UUG start = alters start codon recognition fidelity in yeast. S. cerevisiae UUG-firefly luciferase reporter, luminescence/redox ratio. 350,000 tested, 0.13% active. activity score, % at 18.7 µM. AID 602363;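 active means replicate mean at a twofold rise or more, about +100% in these data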;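 further: firefly luciferase made from a UUG start codon reports start codon fidelity; reporter light over untreated wells divided by growth signal over untreated wells; some hits fall short of that in this replicate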
MLL AF4-AF9 inh = inhibitors of AF4 peptide binding to AF9, primary screen, biochemical, AlphaScreen, biotin-AF4 peptide, FLAG-AF9, single point | Protein AF-9 (Homo sapiens), P42568 | inhibition, % at 10 µM | hit rate 0.47% among 350,000 | AID 651704, 2012;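 active = every replicate reaching a set inhibition limit, whatever the replicate mean, cut at about 25% in these data; inconclusive = mean inhibition reaches that limit but some replicates miss it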
E-sel inducer = E-selectin induction in HUVECs, primary screen, imaging, HUVEC, immunofluorescence imaging, single point; normalized: neutral wells 0, TNF-alpha wells 100; activation, % at 7.58 µM; hit rate 0.37% among 260,000;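 active = mean E-selectin-positive cell signal at least 10% of the positive control, reached in at least 60% of replicates, without over 20% cell loss; inconclusive = no rule given, readout overlaps actives, possibly toxicity-flagged; inactive = the rest, including those meeting only one limit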
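System: HUVEC, human umbilical vein endothelial cells; quantity: 3,000 cells/well; buffer or medium: EGM-2 medium, gelatin-coated wells; dosing: single-point compound dose; detection: immunofluorescence imaging; evaluation: % PE-positive cells; benchmarks: TNF-alpha, DMSO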
A number is an active result; 0 = inactive; ? = inconclusive; - = no result given. A selection: hits, their analogues and other compounds. The true share with any hit is near 1.3%.

Sequences of proteins named here, by UniProt entry; tags and fusion partners are left off.
Protein AF-9 (Homo sapiens), P42568, UniProt P42568, whole entry, looked up: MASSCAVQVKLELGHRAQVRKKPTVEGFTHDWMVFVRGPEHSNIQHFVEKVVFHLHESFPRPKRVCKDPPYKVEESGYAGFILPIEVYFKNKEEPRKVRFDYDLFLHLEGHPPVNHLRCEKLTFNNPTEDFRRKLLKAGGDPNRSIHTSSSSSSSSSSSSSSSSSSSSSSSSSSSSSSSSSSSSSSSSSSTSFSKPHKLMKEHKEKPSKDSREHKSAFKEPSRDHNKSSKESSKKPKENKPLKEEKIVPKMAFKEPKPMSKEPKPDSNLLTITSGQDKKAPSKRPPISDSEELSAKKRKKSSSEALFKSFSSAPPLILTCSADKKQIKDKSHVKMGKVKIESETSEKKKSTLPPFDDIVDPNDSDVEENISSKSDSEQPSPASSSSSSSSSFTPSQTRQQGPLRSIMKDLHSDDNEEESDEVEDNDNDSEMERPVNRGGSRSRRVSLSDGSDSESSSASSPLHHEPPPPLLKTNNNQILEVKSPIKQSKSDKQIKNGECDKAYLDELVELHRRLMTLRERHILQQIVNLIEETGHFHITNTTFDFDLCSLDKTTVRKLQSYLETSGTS

SMILES | S100A4 inh HTS | ARNT TACC3 PPI | ERAP1 inh | Yeast UUG start | MLL AF4-AF9 inh | E-sel inducer
O=C(O)c1cc2ccccc2cn1 | 0 | 77 | 0 | 0 | 0 | 0
O=C(O)c1cnc2ccccc2n1 | - | 0 | - | 0 | - | -
CC(C)NC(=O)N(C)C[C@@H]1OCCCC[C@@H](C)Oc2ccc(NC(=O)Nc3ccc(F)cc3)cc2C(=O)N([C@@H](C)CO)C[C@H]1C | 0 | 0 | 0 | 0 | 0 | 0
COc1ccc(/C(=N/Nc2ncnc3ccccc23)C(=O)O)cc1 | 0 | 60 | 0 | 0 | 0 | 0
COc1ccc2c(c1)OC1(C)CC2C(C(=O)c2ccccc2OC)C(=O)N1 (stereo not drawn) | 0 | 0 | 0 | 0 | 49 | 0
COc1ccc2c(c1)C1CC(C)(NC(=O)C1C(=O)c1ccccc1)O2 (stereo not drawn) | - | 0 | - | 0 | - | -
O=C(Cc1cccc2ccccc12)NN1C(=O)CSC1=S | 0 | 0 | 0 | - | 0 | 0
O=C(NN1C(=O)CSC1=S)C(=O)NN1C(=O)CSC1=S | 0 | 59 | 0 | 0 | 0 | 0
C[C@H]1CN([C@@H](C)CO)S(=O)(=O)c2ccc(C3=CCCCC3)cc2O[C@@H]1CN(C)Cc1ccncc1 | 0 | 0 | 0 | 0 | 0 | 0
C[C@H](O)C#Cc1ccc([C@H]2[C@@H](CO)N3CCCCN(C(=O)c4ccc5c(c4)OCO5)C[C@H]23)cc1 | 0 | 0 | 0 | 0 | 0 | 0
C[C@@H]1CCCCO[C@@H](CN(C)C(=O)Nc2ccc(F)cc2)[C@@H](C)CN([C@H](C)CO)C(=O)c2cc(NC(=O)CCC(F)(F)F)ccc2O1 | 0 | 0 | 0 | 0 | 0 | -
COc1ccccc1NC(=O)N[C@@H]1CC[C@@H](CCNC(=O)c2ccc3c(c2)OCO3)O[C@@H]1CO | 0 | 0 | 0 | 0 | 0 | 0
COc1ccc(NC(=S)NCCCN2CCOCC2)cc1 | 0 | 0 | 0 | - | 0 | -
COc1ccc(N2CCN(CCCNC(=S)Nc3c(C)cccc3C)CC2)cc1 | 0 | 0 | - | 0 | 43 | 0
O=C1C(C=NCc2ccccn2)=C(O)c2ccccc21 | 0 | 66 | 0 | 0 | 0 | -
CC(C)CN=CC1=C(O)c2ccccc2C1=O | 0 | 0 | 0 | 0 | 0 | 0
Cc1ccccc1/C=N/N1C(=O)CSC1=S | 0 | 39 | 0 | 0 | 0 | 0
O=C1CSC(=S)N1/N=C/c1cccnc1 | 0 | 39 | 0 | 0 | 0 | 0
O=C1CSC(=S)N1N=Cc1cccc(OCc2ccccc2)c1 | 0 | - | 0 | 0 | 0 | 0
O=C1CSC(=S)N1N=Cc1ccc(Cl)cc1Cl | 0 | 0 | 0 | - | 0 | 0
O=C1CSC(=S)N1N=Cc1cccc2ccccc12 | 0 | 0 | 0 | - | 0 | 0
O=C1CSC(=S)N1N=Cc1ccccc1O | 0 | 65 | 0 | - | 0 | ?
C[C@@H]1CCCCO[C@H](CN(C)C(=O)Nc2ccccc2)[C@H](C)CN([C@@H](C)CO)C(=O)c2cc(NC(=O)C3CCCCC3)ccc2O1 | 0 | 0 | 0 | 0 | 0 | -
O=S(=O)(O)c1ccc(O)c2cc(Nc3ccccc3)ccc12 | 0 | 0 | 0 | 0 | 0 | 0
O=S(=O)(O)c1cc(O)c2cc(Nc3ccccc3)ccc2c1 | 0 | 0 | 43 | 0 | 0 | 0
SMILES | S100A4 inh HTS | ARNT TACC3 PPI | ERAP1 inh | Yeast UUG start | MLL AF4-AF9 inh | E-sel inducer
O=S(=O)(O)c1cc(O)c2ccc(Nc3ccccc3)cc2c1 | 0 | 0 | 40 | 0 | 0 | -
COc1ccccc1Nc1ccc2c(O)cc(S(=O)(=O)O)cc2c1 | 0 | active | 38 | 0 | 0 | 0
CC(=O)Nc1ccc2c(c1)C(=O)N(C)[C@@H]1CC[C@H](CC(=O)N3CCc4ccccc4C3)O[C@@H]1CO2 | - | 0 | - | 0 | - | 0
CN1CCN(C(=O)C[C@@H]2CC[C@@H](NC(=O)Nc3ccccc3F)[C@@H](CO)O2)CC1 | 0 | 0 | 0 | 0 | 0 | 0
Cc1ccc(-n2cc(CNCCc3ncc(C)[nH]3)c(-c3ccc(F)cc3)n2)cc1 | 0 | 0 | 0 | - | 28 | 0
CC=Cc1ccc2n(c1=O)C[C@@H]1[C@@H](CO)[C@H](C(=O)NCC)N(CC3CCOCC3)[C@H]21 (mixture of isomers) | - | - | - | - | 0 | 0

Screening data as filed in PubChem BioAssay.
